Columns and labels:
[1] = Thermogravimetric analysis (TGA), enthalpy of sublimation from Arrhenius plot of mass loss rate; assay type: physicochemical; details: for Sublimation ΔHsub: 25-400° C., 10° C. per minute, slope of log mass loss rate versus 1000/T; for Sublimation Tlow: lower temperature of sublimation range; for Sublimation Thigh: upper temperature of sublimation range
Experimental: (§1) To determine optimal process temperature, differential scanning calorimetry (DSC) and thermogravimetric analysis (TGA) were performed on the pure components, as well as on the cocrystal, shown in FIG. 2. A TA instruments DSC Q200 was used with a 40-400° C. heating range and 10° C. per minute heating rate. Only initial heating curves were collected and analyzed, without a cooling and secondary heating step. The initial melting peak temperature and enthalpy of melting values for each sample was determined using Universal Analysis software from TA instruments. A TA Instruments TGA Q500 was used with a 25-400° C. heating range and a 10° C. per minute heating rate. Powder was placed into a 5 mm diameter aluminum sample pan centered in a platinum hang pan. Enthalpies of sublimation were determined by plotting the logarithm of mass loss rate (−dm/dt) versus inverse temperature (1000/T).

[2] = Differential scanning calorimetry (DSC), enthalpy of melting; assay type: physicochemical; details: 40-400° C., 10° C. per minute, initial heating curve
Experimental: as §1

[3] = SEM

Substance	Sublimation ΔHsub [1]	Sublimation Tlow [1]	Sublimation Thigh [1]	Melting ΔHmelt [2]	crystallite size ([3]; bulk synthesized and dried (solvent evaporation) material)	particle size ([3]; gas-processed (de-sublimated) material)
indomethacin-saccharine [IND-SAC]	24.47 kcal/mol	200 °C	280 °C	17.6 kcal/mol	–	–
carbamazepine-succinic acid [CBZ-SUC]	67.57 kcal/mol	200 °C	230 °C	22.6 kcal/mol	> 100 μm	below 10 μm
